Data from ChEMBL document CHEMBL4020826 (J Med Chem, 2018).

Experiments:
[1] = Ratio of drug level in Sprague-Dawley rat CSF to plasma at 0.1 mg/kg, administered as single dose measured after 1 hr post dose by LC-MS/MS analysis; conditions: strain Sprague-Dawley
[2] = Ratio of drug level in Sprague-Dawley rat CSF to plasma at 0.3 mg/kg, administered as single dose measured after 1 hr post dose by LC-MS/MS analysis; conditions: strain Sprague-Dawley
[3] = Ratio of drug level in Sprague-Dawley rat CSF to plasma at 1 mg/kg, administered as single dose measured after 1 hr post dose by LC-MS/MS analysis; conditions: strain Sprague-Dawley
[4] = Ratio of drug level in Sprague-Dawley rat CSF to plasma at 3 mg/kg, administered as single dose measured after 1 hr post dose by LC-MS/MS analysis; conditions: strain Sprague-Dawley
[5] = Ratio of drug level in Sprague-Dawley rat CSF to plasma at 10 mg/kg, administered as single dose measured after 1 hr post dose by LC-MS/MS analysis; conditions: strain Sprague-Dawley
[6] = Ratio of EC50 for recombinant human mGlu2 receptor to drug level in Sprague-Dawley rat CSF at 0.3 mg/kg, sc
[7] = Ratio of EC50 for recombinant human mGlu2 receptor to drug level in Sprague-Dawley rat CSF at 3 mg/kg, sc
[8] = Ratio of EC50 for recombinant human mGlu3 receptor to drug level in Sprague-Dawley rat CSF at 0.3 mg/kg, sc
[9] = Ratio of EC50 for recombinant human mGlu3 receptor to drug level in Sprague-Dawley rat CSF at 3 mg/kg, sc
[10] = Ratio of drug level in Sprague-Dawley rat CSF to plasma at 1.5 mg/kg, sc administered via infusion by LC-MS/MS analysis; conditions: strain Sprague-Dawley
[11] = Ratio of drug level in Sprague-Dawley rat CSF to plasma at 5 mg/kg, sc administered via infusion by LC-MS/MS analysis; conditions: strain Sprague-Dawley
[12] = Ratio of drug level in Sprague-Dawley rat CSF to plasma at 15 mg/kg, sc administered via infusion by LC-MS/MS analysis; conditions: strain Sprague-Dawley
[13] = Ratio of drug level in Sprague-Dawley rat CSF at 3 mg/kg, sc to EC50 for recombinant human mGlu2 receptor

COc1cccc(C(=O)N[C@H]2C[C@@](N)(C(=O)O)[C@@H]3[C@@H](C(=O)O)[C@@H]32)c1
Ratio [1]: 0.9 | Ratio [2]: 0.9 | Ratio [3]: 0.8 to 1.4 | Ratio [4]: 1 | Ratio [5]: 1 | Ratio [6]: 7 | Ratio [7]: 0.7 | Ratio [8]: 15 | Ratio [9]: 157 | Ratio [10]: 2.1% | Ratio [11]: 1.9% | Ratio [12]: 2.7% | Ratio [13]: 1.5
